Values quoted from earlier work, collected in patent publication US20240115492A1, “AN ORODISPERSIBLE PHARMACEUTICAL SOLID DOSAGE FORM OF RASAGILINE” (INTAS PHARMACEUTICALS LTD., priority 2021, published 2024).

Sequences of proteins named here, by UniProt entry; tags and fusion partners are left off.
UniProt P27338, whole entry: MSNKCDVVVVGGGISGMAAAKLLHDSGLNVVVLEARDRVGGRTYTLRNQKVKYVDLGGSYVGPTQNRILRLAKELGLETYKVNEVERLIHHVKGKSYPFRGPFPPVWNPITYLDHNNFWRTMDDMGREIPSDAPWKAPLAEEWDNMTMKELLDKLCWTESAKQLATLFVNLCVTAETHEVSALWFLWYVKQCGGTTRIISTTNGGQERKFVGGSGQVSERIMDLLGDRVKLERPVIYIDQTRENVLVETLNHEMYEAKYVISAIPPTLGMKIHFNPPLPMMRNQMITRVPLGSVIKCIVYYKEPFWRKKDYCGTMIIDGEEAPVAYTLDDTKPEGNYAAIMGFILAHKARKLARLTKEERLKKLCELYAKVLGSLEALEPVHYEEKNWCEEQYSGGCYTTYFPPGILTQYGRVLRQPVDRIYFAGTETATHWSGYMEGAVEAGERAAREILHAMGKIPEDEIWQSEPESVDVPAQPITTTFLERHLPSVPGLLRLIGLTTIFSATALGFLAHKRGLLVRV

Biological target: monoamine oxidase B (Homo sapiens, UniProt P27338)

## NC1CCc2ccccc21 (stereo not shown) [indan-1-amine]
  inhibition of monoamine oxidase B: does not inhibit
